Measurements from patent publication US20240398943A1, “METHODS OF TREATING CANCER AND THE PHARMACEUTICAL COMPOSITIONS THEREOF” (SYSTIMMUNE, INC., priority 2021, published 2024).

Test system: FaDu cells (wild type EGFR) tumor xenograft
Conditions: all dose groups of the treatment
Procedure: Xenotransplantation of human cancer cells into immunocompromised mice is a gold-standard model used for pre-clinical oncology research and testing of anti-cancer therapies. In general, human cancer cell lines are injected below the skin of the mouse. […] The primary outcome parameter is growth inhibition by the drug, for which tumor size is measured over time, often externally with calipers. After the tumor reaches a certain size, the mice are euthanized. Drug effects on the tumor are further analyzed on a tissue level or molecular level (e.g., DNA, proteins). The primary outcome parameter of a xenograft model for testing drug efficacy is the growth of the treated tumor versus control. Typically, xenograft tumors grow from 100 mm^3 (6 mm diameter) to 1000 mm^3 (12 mm diameter) in several weeks. The growth rate often declines with larger tumor sizes, as opposed to exponential growth in (2D) in vitro experiments. Tumor growth inhibition varies per drug and implanted cell line. […]
Tumor volume (mm3) V=½×(a×b)^2, where a represents the long diameter and b represents the short diameter. […] The T/C value (%) can also be calculated as T/C %=TTW/CTW×100%, where TTW is the average tumor weight at the end of the treatment group experiment and CTW is the average tumor weight at the end of the control group experiment.

**Q.** Which “toxicity / safety assessment” value does the source give for paclitaxel+carboplatin here?
**A.** more toxic and is less safe than SI-B001 single-agent
